Measured values from ChEMBL document CHEMBL1144684, “Evaluation of a series of naphthamides as potent, orally active vascular endothelial growth factor receptor-2 tyrosine kinase inhibitors” (J Med Chem, 2008).

By UniProt entry, the sequences of proteins in these tests, tags left out.
UniProt P35968, whole entry: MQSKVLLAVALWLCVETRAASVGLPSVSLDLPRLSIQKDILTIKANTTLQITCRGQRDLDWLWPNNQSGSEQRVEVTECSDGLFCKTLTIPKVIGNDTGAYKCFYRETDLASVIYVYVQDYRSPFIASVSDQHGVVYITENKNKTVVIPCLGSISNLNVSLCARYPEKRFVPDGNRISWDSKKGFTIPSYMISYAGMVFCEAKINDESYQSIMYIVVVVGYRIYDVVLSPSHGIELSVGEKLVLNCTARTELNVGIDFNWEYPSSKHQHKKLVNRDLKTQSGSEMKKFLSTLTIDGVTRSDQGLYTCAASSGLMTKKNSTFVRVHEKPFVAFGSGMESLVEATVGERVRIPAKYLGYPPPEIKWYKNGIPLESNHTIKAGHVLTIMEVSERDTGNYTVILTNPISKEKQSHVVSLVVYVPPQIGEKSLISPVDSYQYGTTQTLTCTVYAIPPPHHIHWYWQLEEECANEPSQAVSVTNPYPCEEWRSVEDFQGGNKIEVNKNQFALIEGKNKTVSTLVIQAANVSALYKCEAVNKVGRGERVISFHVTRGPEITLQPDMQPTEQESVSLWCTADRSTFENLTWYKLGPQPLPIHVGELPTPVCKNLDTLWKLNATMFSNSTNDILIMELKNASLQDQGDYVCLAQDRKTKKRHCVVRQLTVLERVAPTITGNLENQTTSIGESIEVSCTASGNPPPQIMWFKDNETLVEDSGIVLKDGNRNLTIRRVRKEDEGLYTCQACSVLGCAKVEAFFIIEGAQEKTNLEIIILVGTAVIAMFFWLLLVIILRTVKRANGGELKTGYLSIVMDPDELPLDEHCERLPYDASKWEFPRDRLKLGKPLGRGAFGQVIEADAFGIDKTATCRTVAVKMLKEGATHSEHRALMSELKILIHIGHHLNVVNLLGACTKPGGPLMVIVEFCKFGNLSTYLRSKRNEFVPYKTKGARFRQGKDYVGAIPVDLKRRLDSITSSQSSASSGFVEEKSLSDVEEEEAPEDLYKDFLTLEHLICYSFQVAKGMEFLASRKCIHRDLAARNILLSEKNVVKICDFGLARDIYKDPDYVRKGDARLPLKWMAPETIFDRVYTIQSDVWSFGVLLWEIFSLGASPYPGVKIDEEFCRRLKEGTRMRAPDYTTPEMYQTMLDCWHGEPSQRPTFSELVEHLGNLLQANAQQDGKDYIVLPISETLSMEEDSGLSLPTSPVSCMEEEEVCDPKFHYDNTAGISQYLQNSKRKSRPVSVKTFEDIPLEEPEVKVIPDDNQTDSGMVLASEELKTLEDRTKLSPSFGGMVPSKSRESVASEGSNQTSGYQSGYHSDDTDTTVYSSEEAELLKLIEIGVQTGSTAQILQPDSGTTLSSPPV

Target: Vascular endothelial growth factor receptor 2 (Homo sapiens, UniProt P35968)

COc1cc2nccc(Oc3ccc4c(C(=O)Nc5ccc(Cl)cc5)cccc4c3)c2cc1OC
IC50: 0.48 nM
